By UniProt entry, the sequences of proteins in these tests, tags left out.
UniProt O75365, whole entry: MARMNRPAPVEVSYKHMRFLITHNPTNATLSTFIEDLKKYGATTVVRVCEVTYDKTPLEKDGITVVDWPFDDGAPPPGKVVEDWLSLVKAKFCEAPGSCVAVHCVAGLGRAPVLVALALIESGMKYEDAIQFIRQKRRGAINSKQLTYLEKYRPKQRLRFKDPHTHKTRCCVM

In ChEMBL document CHEMBL4814023, “The dual inhibition against the activity and expression of tyrosine phosphatase PRL-3 from a rhodanine derivative” (Bioorg Med Chem Lett, 2021):

Target: Protein tyrosine phosphatase type IVA 3 (Homo sapiens, UniProt O75365)

- Ka: 6.44 10^6/M
Compound: O=C1NC(=S)S/C1=C\c1cc(Cl)ccc1Cl
